This assay concerns the target KOR (Mus musculus, UniProt P33534). Description: KOR [35S]GTPγS binding assay. The arrangement: expressed in transfected cells; host or cells: CHO. In kind it is biochemical. For orientation: GTPγS resists hydrolysis and so accumulates on activated G proteins.

Chains of the proteins cited; added tags and fusions are not shown. Lines headed by an entry give the natural chain unless they say otherwise; changes in a name come on top.
UniProt P33534: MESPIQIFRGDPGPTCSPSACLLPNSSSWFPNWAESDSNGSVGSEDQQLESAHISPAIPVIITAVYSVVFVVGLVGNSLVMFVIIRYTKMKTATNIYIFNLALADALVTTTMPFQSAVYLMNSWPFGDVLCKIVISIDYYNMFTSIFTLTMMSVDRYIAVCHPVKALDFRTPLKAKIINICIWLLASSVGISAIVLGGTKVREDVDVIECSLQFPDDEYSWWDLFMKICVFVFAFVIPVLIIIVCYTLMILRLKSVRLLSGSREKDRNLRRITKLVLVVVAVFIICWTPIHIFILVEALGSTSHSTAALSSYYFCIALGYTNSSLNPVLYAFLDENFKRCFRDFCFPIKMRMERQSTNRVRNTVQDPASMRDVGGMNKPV

EC50 data for one compound are collected here from patent US20250195504A1, “NALTREXAMINE DERIVATIVES BEARING 5-MEMBER HETEROCYCLIC RING SYSTEMS AND OPIOID RECEPTOR MODULATORS” (VIRGINIA COMMONWEALTH UNIVERSITY, priority 2022, published 2025).

Structures can show the parent of a compound that is named as a salt.

As a reminder, the EC50 is the concentration at which the effect is half-maximal. A high value points to a less potent agent. Compound `O=C(N[C@H]1CC[C@@]2(O)[C@H]3Cc4ccc(O)c5c4[C@@]2(CCN3CC2CC2)[C@H]1O5)c1cccs1` [Example 1 compound 25, 17-Cyclopropylmethyl-3,14β-dihydroxy-4,5α-epoxy-6α-(2′-thienylcarboxamido)morphinan hydrochloride] registered an EC50 of 1.72 ± 0.24 nM.
